Measured values as given in publication PMC3908770 (Journal of medicinal chemistry, 2013).

Chains of the proteins cited; added tags and fusions are not shown. Residues count along the entry.
UniProt P31424, 21-1203 Y658V: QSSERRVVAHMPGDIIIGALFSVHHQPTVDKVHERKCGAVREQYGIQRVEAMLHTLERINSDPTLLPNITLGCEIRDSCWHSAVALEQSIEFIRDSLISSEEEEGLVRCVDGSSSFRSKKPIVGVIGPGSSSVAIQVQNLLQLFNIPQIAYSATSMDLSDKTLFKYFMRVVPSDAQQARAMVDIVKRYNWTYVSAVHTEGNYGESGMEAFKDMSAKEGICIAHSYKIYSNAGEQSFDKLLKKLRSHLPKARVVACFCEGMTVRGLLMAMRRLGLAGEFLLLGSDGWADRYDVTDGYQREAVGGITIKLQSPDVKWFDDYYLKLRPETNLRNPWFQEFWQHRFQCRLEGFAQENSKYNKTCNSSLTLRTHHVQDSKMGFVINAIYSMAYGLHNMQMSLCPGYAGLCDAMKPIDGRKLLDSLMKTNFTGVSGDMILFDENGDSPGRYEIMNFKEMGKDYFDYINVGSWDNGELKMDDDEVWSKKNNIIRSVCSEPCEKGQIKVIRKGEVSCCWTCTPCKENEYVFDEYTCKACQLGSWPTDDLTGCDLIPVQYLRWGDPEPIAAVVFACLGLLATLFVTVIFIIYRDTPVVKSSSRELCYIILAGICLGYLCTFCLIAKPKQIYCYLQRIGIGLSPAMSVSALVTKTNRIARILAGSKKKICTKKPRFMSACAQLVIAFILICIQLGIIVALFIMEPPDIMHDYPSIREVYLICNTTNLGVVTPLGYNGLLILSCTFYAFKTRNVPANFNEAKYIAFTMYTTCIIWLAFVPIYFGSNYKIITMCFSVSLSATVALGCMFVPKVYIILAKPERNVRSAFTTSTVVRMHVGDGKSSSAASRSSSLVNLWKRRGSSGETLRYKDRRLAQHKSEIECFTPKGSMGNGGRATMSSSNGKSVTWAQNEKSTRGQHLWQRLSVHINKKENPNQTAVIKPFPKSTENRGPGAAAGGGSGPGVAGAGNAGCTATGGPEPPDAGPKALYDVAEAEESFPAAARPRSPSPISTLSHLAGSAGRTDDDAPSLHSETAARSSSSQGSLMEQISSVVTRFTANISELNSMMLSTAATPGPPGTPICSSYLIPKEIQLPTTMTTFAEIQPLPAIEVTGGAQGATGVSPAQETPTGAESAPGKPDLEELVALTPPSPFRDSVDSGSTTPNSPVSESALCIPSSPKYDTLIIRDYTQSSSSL

Target: mGlu5 Y658V (Rattus norvegicus, UniProt P31424, Y658V)
Test: Progressive fold-shift at mGlu5 point mutant, operational model of allosterism

SMILES | Effect of Y658V mutation
C[C@@H](NC(=O)c1ccc(C#Cc2ccccn2)cn1)C(C)(C)O [Compound 31i, (R)-N-(3-Hydroxy-3-methylbutan-2-yl)-5-(pyridin-2-ylethynyl)picolinamide] | no effect on affinity or cooperativity
CC1(NC(=O)c2ccc(C#Cc3cccc(F)c3)cn2)COC1 [Compound 38t, 5-((3-Fluorophenyl)ethynyl)-N-(3-methyloxetan-3-yl)picolinamide] | NAM switch
